# Laboratory results from ChEMBL document CHEMBL3596119, “Synthesis and biological characterization of a promising F-18 PET tracer for vesicular acetylcholine transporter” (Bioorg Med Chem, 2015).
# Molecular target: T1, Vesicular acetylcholine transporter (Homo sapiens, UniProt Q16572)
# T1 sequence (Q16572 whole entry): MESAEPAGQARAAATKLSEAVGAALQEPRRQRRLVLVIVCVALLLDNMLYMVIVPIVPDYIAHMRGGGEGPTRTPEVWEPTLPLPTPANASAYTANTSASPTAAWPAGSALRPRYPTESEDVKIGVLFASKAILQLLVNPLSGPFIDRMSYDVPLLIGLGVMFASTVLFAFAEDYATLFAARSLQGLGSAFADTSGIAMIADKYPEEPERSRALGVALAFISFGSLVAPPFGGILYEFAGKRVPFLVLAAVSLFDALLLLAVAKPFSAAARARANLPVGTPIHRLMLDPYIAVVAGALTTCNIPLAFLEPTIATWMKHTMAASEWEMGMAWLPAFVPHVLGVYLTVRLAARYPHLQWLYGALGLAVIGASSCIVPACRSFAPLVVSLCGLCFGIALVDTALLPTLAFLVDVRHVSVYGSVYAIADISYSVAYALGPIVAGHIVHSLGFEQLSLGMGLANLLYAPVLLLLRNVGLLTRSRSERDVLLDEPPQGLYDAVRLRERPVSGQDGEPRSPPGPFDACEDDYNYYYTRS
# Assay: Displacement of [3H]-vesamicol from human VAChT after 24 hrs by liquid scintillation spectrometry analysis
smiles,measurement,value
O=C(c1ccc(F)cc1)c1cccc2c1C[C@@H](N1CCC(c3ccccc3)CC1)[C@H](O)C2,Ki,2.7 nM
